Results reported in PMC3640069, “VPPIPP and IPPVPP: Two Hexapeptides Innovated to Exert Antihypertensive Activity” (PLoS ONE, 2013).

Assay: Blood glucose level of SHR after administration
Format: in vivo, rat
Details: 1.5 mg/kg BW; for effect on blood glycometabolism: 3.5 h after administration; for Blood Glucose Concentration: tail blood 3.5 h after administration, mean ± SD, SD
Procedure: To evaluate the effect of the selected tripeptides on glycometablism after administration in vivo, the SHRs were tail bled 3.5 h after administration with the selected tripeptides at a dose of 1.5 mg/kg BW, and blood glucose level was determined by One Touch Ultra test strips using the One Touch Ultra blood Glucose monitoring system (LifeScan, Inc. Milpitas, USA).

effect on blood glycometabolism | Blood Glucose Concentration | Substance
no negative impact | 4.20±0.60^a mmol/L | Isoleucine-Proline-Proline-Valine- Proline-Proline [IPPVPP]
no negative impact | 4.30±0.15^a mmol/L | Valine-Proline-Proline-Isoleucine-Proline-Proline [VPPIPP]

Marks after values point to notes of the source that are not given here.
